Experiments:
[1] = tested on: HCV replicon in S6.1-6 cells; test: Liver model with S6.1-6 replicon cells in gamma-irradiated SCID mice (Example 11); type: in vivo; settings: 200,000 IU per day per 18 gram mouse SC
Description: Replicon-containing S6.1-6 cells were prepared as described above in Example 3. The cells were harvested and re-suspended in HBSS at 1×10̂6 cells/0.05 mls/injection. Female C.B17 SCID mice were shaved, gamma-irradiated at 3 GY for approximately 3.2 minutes. Mice were irradiated approximately 4 hours prior to surgery.
An incision was made through the skin and the peritoneal cavity, and then one liver lobe exposed gently. Tumor cells in 0.05 mls of HBSS were injected into the lobe at two sites (1×10̂6 cells/0.05 mls/injection). The surgical incision was closed in the mice were allowed to recover from surgery overnight.
Mice were then randomized and either interferon-alpha or placebo was administered subcutaneously once a day beginning on day 1 and ending on day 7. Each group contained nine mice and the treatments were: […]
In vivo images were taken from the ventral view on days 1 (one day post-surgery), 2, 4 and 7. […] The bioluminescent signal from each mouse was measured from the ventral view by injecting the mouse intraperitoneally with 150 mg/kg of the luciferase substrate luciferin, then placing the mouse and a light tight chamber and capturing the signal with a cooled CCD camera (IVIS system, Xenogen, Alameda, Calif.). A region of interest was created around the liver area of the mouse in the signal was quantified in photons per second.

[2] = tested on: S6.1-6 cells with control plasmid expressing Renilla luciferase driven by the CMV promoter; test: Subcutaneous dual reporter model, Renilla luciferase control for cell killing (Example 12); type: in vivo, human; settings: day 2, judged from renilla signal
Description: (§1) Co-transfected, replicon containing S6.1-6 cells were implanted subcutaneously into previously irradiated SCID mice on day 1. All mice were imaged for the firefly luciferase bioluminescence following administration of the luciferin substrate. The mice were randomized and divided into treated and vehicle groups. The mice in the treated and vehicle groups had initial mean firefly luciferase bioluminescence within 10% of each other. Mice were treated with IFN or vehicle after imaging. On days 2 and 3 mice were imaged without any substrate to ensure that all luciferin bioluminescence had dissipated. Then, all mice were imaged for the renilla luciferase bioluminescence after administration of coelenterazine substrate. Four to five hours later, all mice were imaged without any substrate to ensure that all the renilla bioluminescence had dissipated. All mice were then imaged for the luciferase bioluminescence after administration of the luciferin substrate. Three naïve mice that had no cells implanted were imaged with coelenterazine to determine the background bioluminescence. The mean background signal was subtracted from the renilla bioluminescence of each of the mice to give the final renilla bioluminescence.

[3] = tested on: HCV replicon in T7-11 cells; test: Subcutaneous T7-11 replicon cell model in gamma-irradiated SCID mice (bioluminescence, NS5B IFA, RT-PCR, cPARP, Ki67)
[4] = tested on: HCV replicon in T7-11 cells; test: Liver model with T7-11 replicon cells in gamma-irradiated SCID mice; type: in vivo; settings: five days after removal of treatment
Source text: To evaluate the efficacy of IFN-α in liver, T7-11 cells were directly injected into one lobe of the liver in gamma irradiated SCID mice. IFN-α2B treatment at 15,000 IU/mouse/day was initiated 27 days post inoculation when the signal was stable. Bioluminescence signal decreased more than 10-fold on the day 2 of dosing in the IFN-α2B treated group as compared to vehicle group (FIG. 13d) (P<0.0001). […] To confirm that the luciferase signal was associated with the liver, the locations of tumors were determined by physical examination at the end of study
The antiviral effect of BILN 2061 on HCV replication was also examined. BILN 2061 was administered subcutaneously at 30 mg/kg once daily starting day 25-post tumor cell implantation.
Whole body in vivo imaging.

[5] = tested on: HCV replicon expressing firefly luciferase in S6.1-6 cells; test: Subcutaneous dual reporter model, firefly luciferase of the replicon (Example 12); type: in vivo
Description: as §1

[6] = tested on: HCV replicon in 5-2 Huh7 cells; test: Subcutaneous 5-2 Huh7 replicon tumor model in gamma-irradiated SCID mice, treatment on day 42 (Example 10); type: in vivo; settings: treated group
Description: Replicon-containing 5-2 Huh7 cells were prepared as described in Example 1 and implanted subcutaneously into SCID mice. The mice were gamma-irradiated at 3 GY for approximately 3.2 minutes on the day of and prior to implantation. Tumors were allowed to grow in the mice. On days 42 and 43, two mice were treated with vehicle and two with IFN-alpha as follows:
Control group: Vehicle (0.1 ml of 100 μμg/ml human serum albumin in HBSS) SC, QD IFN group: 200,000 IU per day per 18 gram mouse IFN-alpha SC
Interferon-alpha injection solution INTRON (Schering) was used. 18 million international units (IU) per vial; 3 million IU per 0.5 ml (NDC 0085-1168-01) Human Serum Albumin at 100 ug/ml (Cat# A5843, Sigma, low endotoxin) was used. In vivo images were taken on days 42 and 43 before each dose and bioluminescence was quantified.

Question: Which results are given for interferon alpha 2B [IFN-α 2B]?
Answer: log drop in mean bioluminescence signal as compared to vehicle ([1]; day 2, one day after first dose): one; mean luciferase signal, log lower than the vehicle group ([1]; day 4, near background): approximately 1.5 log; cell killing or toxicity versus the vehicle group [2]: no significant cell killing or toxicity; mean bioluminescence signal after treatment was discontinued (rebound) ([3]; 15,000 IU/mouse QD 3 days, 4 days after discontinuation): returned to the level that was similar to untreated group; mean bioluminescence signal with ongoing daily dosing ([3]; 15,000 IU/mouse/day QD 14 days): continued to decrease to background; Ki67 staining (cell proliferation), treated group versus control group ([3]; data not shown): no difference; cells with detectable viral NS5B protein by IFA in tumor tissue ([3]; rebound group (IFN QD 3 days), 33 days post implantation): more than 20%; rebound of signal after removal of treatment [4]: only a slight rebound; Mean Bioluminescence, Firefly, Day 1 ([5]; Day 1, imaged before treatment (baseline)): 8.63E+06 photons/second; Mean Bioluminescence, Firefly, Day 2 ([5]; Day 2): 5.46E+05 photons/second; mean bioluminescent signal prior to dosing ([6]; day 42 before dosing (baseline)): 1.07E+06 photons/sec; mean bioluminescent signal after dosing ([6]; day 43, 200,000 IU per day per 18 gram mouse SC): 1.35E+05 photons/sec

From patent US20100017895A1, “Small animal model for hcv replication” (priority 2005, published 2010)
